Data: patent US5462952A, “Fenamate 1,3,4-thiadiazoles and 1,3,4-oxadiazoles as antiinflammatory agents” (Warner-Lambert Company, priority 1993, dated 1995)

Biological target: T1, 5-Lipoxygenase (Rattus norvegicus, UniProt P12527)
T1 construct: host or cells: RBL-1 (rat basophilic leukemia)
T1 sequence (P12527 1-673): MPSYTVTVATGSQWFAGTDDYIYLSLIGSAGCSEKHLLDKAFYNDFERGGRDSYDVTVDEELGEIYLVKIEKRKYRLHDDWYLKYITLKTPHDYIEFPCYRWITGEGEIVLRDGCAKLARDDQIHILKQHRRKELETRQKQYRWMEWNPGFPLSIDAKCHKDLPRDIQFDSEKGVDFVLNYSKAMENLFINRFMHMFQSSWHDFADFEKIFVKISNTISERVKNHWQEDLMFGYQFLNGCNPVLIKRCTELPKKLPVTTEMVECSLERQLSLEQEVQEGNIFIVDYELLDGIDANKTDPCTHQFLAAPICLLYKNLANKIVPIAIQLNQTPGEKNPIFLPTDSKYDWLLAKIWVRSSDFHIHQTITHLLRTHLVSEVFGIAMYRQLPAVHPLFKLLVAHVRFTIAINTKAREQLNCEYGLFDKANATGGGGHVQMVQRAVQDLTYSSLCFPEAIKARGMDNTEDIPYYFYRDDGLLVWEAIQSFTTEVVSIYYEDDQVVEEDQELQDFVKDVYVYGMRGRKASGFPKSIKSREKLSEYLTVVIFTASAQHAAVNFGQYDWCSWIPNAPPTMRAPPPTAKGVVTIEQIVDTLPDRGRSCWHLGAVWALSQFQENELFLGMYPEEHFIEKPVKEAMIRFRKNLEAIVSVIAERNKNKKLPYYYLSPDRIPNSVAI
Assay: ARBL whole cell 5-lipoxygenase assay (LTB4 formation in RBL-1 cells, A23187-stimulated)
Assay type: cell-based
Conditions: Table 2
Method: The rat basophilic leukemia cell line (RBL-1) was obtained from the American Type Culture Collection (Rockville, Md.).
Radioimmunoassay (RIA) kits of LTB4 and PGF2α were obtained from Amersham (Arlington Heights, Ill.) and Seragen (Boston, Mass.), respectively.
RBL-1 cells are grown in suspension culture in Eagle's minimum essential medium supplemented with 12% fetal bovine serum at 37° C. in an incubator supplied with air-5% carbon dioxide. Cells are harvested by centrifugation. They are washed with cold phosphate buffered saline pH 7.4 (PBS; NaCl, 7.1 g; Na2 HPO4, 1.15 g; KH2 PO4, 0.2 g; and KCl, 0.2 g/l). Cells are finally suspended in PBS containing 1.0 mM calcium at a density of 2×10^6 cells/ml. Cells are incubated with and without test agent (in DMSO) (1% DMSO is without effect on arachidonic acid metabolism) for ten minutes at room temperature. Calcium ionophore A23187 (5 μM) is added and cells are incubated for seven minutes at 37° C. The reaction is stopped by chilling the tubes on ice for ten minutes. Cells are separated by centrifugation and the supernatant is stored at -20°. Aliquots (100 μl) are analyzed for LTB4 and PGF2α using radioimmunoassay kits as provided by the supplier. […]

N#CNc1nnc(-c2ccccc2Nc2cccc(C(F)(F)F)c2)o1 [Example 26, 5-[2-[[3-(Trifluoromethyl)phenyl]amino]phenyl]-1,3,4-oxadiazol-2-yl-cyanamide]
IC50: 2990 nM
